Article PMC10677270, “2554. What’s Weight Got to Do with It? Prospective Pharmacokinetic/Pharmacodynamic Evaluation of Fixed-Dose Daptomycin” (Open Forum Infectious Diseases, 2023)

Assay: Steady-state pharmacokinetic/pharmacodynamic evaluation of fixed-dose (750 mg) daptomycin in patients with Staphylococcus aureus infections

## CCCCCCCCCC(=O)N[C@@H](Cc1c[nH]c2ccccc12)C(=O)N[C@H](CC(N)=O)C(=O)N[C@@H](CC(=O)O)C(=O)N[C@@H]1C(=O)NCC(=O)N[C@@H](CCCN)C(=O)N[C@@H](CC(=O)O)C(=O)N[C@H](C)C(=O)N[C@@H](CC(=O)O)C(=O)NCC(=O)N[C@H](CO)C(=O)N[C@@H]([C@H](C)CC(=O)O)C(=O)N[C@@H](CC(=O)c2ccccc2N)C(=O)O[C@@H]1C [DAP, daptomycin]
All patients, 7/22, DAP 750 mg every 24 h, safety target
  Elevated Cmin (> 24.3 mg/L) occurred, share of patients: 32%
Males n=10, DAP 750 mg every 24 h
  Elevated Cmin (> 24.3 mg/L), share of patients: 20%
